# Paper PMC4869338, “Pre-clinical evaluation of CYP 2D6 dependent drug–drug interactions between primaquine and SSRI/SNRI antidepressants” (Malaria Journal, 2016)
# Protein sequences, listed by entry. Tags and fused reporters are not part of them.
# UniProt P10635, whole entry: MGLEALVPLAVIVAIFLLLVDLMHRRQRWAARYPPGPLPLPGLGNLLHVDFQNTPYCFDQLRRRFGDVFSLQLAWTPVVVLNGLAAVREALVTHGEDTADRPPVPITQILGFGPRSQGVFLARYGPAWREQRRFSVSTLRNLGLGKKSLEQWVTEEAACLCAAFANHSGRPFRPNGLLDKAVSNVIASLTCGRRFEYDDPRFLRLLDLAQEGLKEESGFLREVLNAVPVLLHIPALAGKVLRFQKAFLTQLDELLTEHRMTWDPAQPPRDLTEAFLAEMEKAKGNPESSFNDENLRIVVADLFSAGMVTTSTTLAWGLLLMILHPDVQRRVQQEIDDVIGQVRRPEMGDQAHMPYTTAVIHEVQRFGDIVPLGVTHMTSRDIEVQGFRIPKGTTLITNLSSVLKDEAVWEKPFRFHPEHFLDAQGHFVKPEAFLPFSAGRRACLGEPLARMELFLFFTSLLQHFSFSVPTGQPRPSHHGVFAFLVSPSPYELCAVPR
# Target: Recombinant human CYP 2D6 (Homo sapiens, UniProt P10635)
# Assay: Time course of primaquine metabolism by recombinant human CYP 2D6 with fluoxetine pre-incubation
# Assay type: in vitro ADME
# Settings: fluoxetine 10 µM pre-incubation; primaquine 1 μM; 0-60 min
smiles,measurement,value
CNCCC(Oc1ccc(C(F)(F)F)cc1)c1ccccc1 (stereo not shown) [fluoxetine],inhibition of primaquine metabolism by CYP 2D6,completely inhibited primaquine metabolism
